The structures appear in SMILES notation. The list shows a part of the results, in another mix than the full data. More than one record can exist for a structure, and the calls need not agree. Activity calls are given as the source filed them. Cut-off read from the data, not from the text of the source: active = growth inhibition above about 70%; inactive = the rest.

Test [1] in a line: NCI Yeast Anticancer Drug Screen. Data for the rad50 strain (AID 155).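 Note: 0% = growth of vehicle-only cultures of the same strain.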 The note with it: S. cerevisiae rad50 strain growth inhibition, active compounds read high.
Test [2] can be described thus: NCI Yeast Anticancer Drug Screen. Data for the mec2-1 strain (AID 157). The note with it: S. cerevisiae mec2-1 strain, active compounds read high.
The nature of test [3]: NCI Yeast Anticancer Drug Screen. Data for the sgs1 mgt1 strain (AID 161).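 Note: 0% = growth of cultures given vehicle only.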 To be noted: S. cerevisiae sgs1 mgt1 strain, active compounds read high.
Test [4] is described as follows: NCI Yeast Anticancer Drug Screen. Data for the cln2 rad14 strain (AID 165).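 Note: 0% = growth equal to vehicle treated cultures.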 The note with it: S. cerevisiae cln2 rad14 strain, active compounds read high.
The nature of test [5]: NCI Yeast Anticancer Drug Screen. Data for the bub3 strain (AID 167). The note with it: S. cerevisiae bub3 mutant strain, active compounds read high.
Test [6] is described as follows: NCI Yeast Anticancer Drug Screen. Data for the mlh1 rad18 strain (AID 175). The note with it: S. cerevisiae mlh1 rad18 strain growth inhibition, active compounds read high.
The mark [7] stands for this setting: at 5.0 µM (retest, dose inferred, filed as 0.5).
The mark [8] stands for this setting: at 50.0 µM (retest, dose inferred, filed as 5.0).

On to `O=C(O)c1c([N+](=O)[O-])cc([N+](=O)[O-])c(-c2ccc([N+](=O)[O-])cc2[N+](=O)[O-])c1[N+](=O)[O-]`, for which the growth inhibition was inactive: 10% in test [1] (setting [7]); inactive: 38% in test [1] (setting [8]); inactive: 66.5% in test [1] (at 50.0 µM); inactive: 7% in test [2] (setting [7]); inactive: 25% in test [2] (setting [8]); inactive: 41.9% in test [2] (at 50.0 µM). Moreover, the growth inhibition in test [3] (setting [7]) was inactive: 12%; in test [3] (setting [8]) it was inactive: 23%; in test [3] (at 50.0 µM), active: 84%; in test [4] (setting [7]), inactive: -3%; in test [4] (setting [8]) it was inactive: 17%; in test [4] (at 50.0 µM), inactive: 28.9%. For the same compound, the growth inhibition in test [5] (setting [7]) is inactive: 4%; in test [5] (setting [8]), inactive: 10%; in test [5] (at 50.0 µM), inactive: 28.3%; in test [6] (setting [7]), inactive: 13%; in test [6] (setting [8]), inactive: 63%; in test [6] (at 50.0 µM), active: 73.2%.

Turning to `CC(COC(=S)OCC(C)([N+](=O)[O-])[N+](=O)[O-])([N+](=O)[O-])[N+](=O)[O-]`, the growth inhibition in test [1] (setting [7]) is inactive: 2%; in test [1] (setting [8]), inactive: 53%; in test [1] (at 50.0 µM) it was inactive: 34.9%; in test [2] (setting [7]), inactive: 3%; in test [2] (setting [8]), inactive: 64%; in test [2] (at 50.0 µM), inactive: 21.6%. Further, the growth inhibition in test [3] (setting [7]) is inactive: 24%; in test [3] (setting [8]), active: 85%; in test [3] (at 50.0 µM) it was inactive: 45.9%; in test [4] (setting [7]), inactive: 9%; in test [4] (setting [8]) it was inactive: 45%; in test [4] (at 50.0 µM), inactive: 34.8%. Besides, the growth inhibition in test [5] (setting [7]) was inactive: -3%; in test [5] (setting [8]) it was active: 92%; in test [5] (at 50.0 µM), inactive: 13.4%; in test [6] (setting [7]), inactive: 5%; in test [6] (setting [8]), active: 92%; in test [6] (at 50.0 µM), active: 71.3%.

On to `CC[S+]1C2CCCCCCC21.O=[N+]([O-])c1cc([N+](=O)[O-])c(S(=O)(=O)[O-])c([N+](=O)[O-])c1`, for which the growth inhibition in test [1] (setting [7]) is inactive: 9%; in test [1] (setting [8]) it was inactive: 31%; in test [1] (at 50.0 µM), inactive: 50.4%; in test [2] (setting [7]), inactive: 20%; in test [2] (setting [8]), inactive: 59%; in test [2] (at 50.0 µM) it was inactive: 20.9%. In addition, the growth inhibition in test [3] (setting [7]) was inactive: 15%; in test [3] (setting [8]), inactive: 63%; in test [3] (at 50.0 µM), inactive: 68.2%; in test [4] (setting [7]), inactive: -2%; in test [4] (at 50.0 µM), inactive: 43.5%; in test [5] (setting [7]), inactive: 2%. For the same compound, the growth inhibition was inactive: 31% in test [5] (setting [8]); inactive: 38.7% in test [5] (at 50.0 µM); inactive: 36% in test [6] (setting [7]); inactive: 62% in test [6] (setting [8]); inactive: 33.8% in test [6] (at 50.0 µM).

Turning to `Cc1c([N+](=O)[O-])cc([N+](=O)[O-])c(Br)c1[N+](=O)[O-]`, the growth inhibition in test [1] (setting [7]) was active: 95%; in test [1] (setting [8]) it was active: 99%; in test [2] (setting [7]), inactive: 57%; in test [2] (setting [8]), active: 100%; in test [3] (setting [7]) it was active: 88%; in test [3] (setting [8]), active: 99%. Moreover, the growth inhibition in test [4] (setting [7]) is inactive: 45%; in test [4] (setting [8]) it was active: 99%; in test [5] (setting [7]) it was active: 79%; in test [5] (setting [8]) it was active: 100%; in test [6] (setting [7]), inactive: 62%; in test [6] (setting [8]) it was active: 99%.

As for `Cc1cc([N+](=O)[O-])ccc1[N+](=O)[O-]`, the growth inhibition in test [1] (setting [7]) was inactive: 12%; in test [1] (setting [8]) it was active: 97%; in test [1] (at 50.0 µM) it was active: 89.9%; in test [2] (setting [7]), inactive: 7%; in test [2] (setting [8]), active: 98%; in test [2] (at 50.0 µM), active: 91.6%. Besides, the growth inhibition in test [3] (setting [7]) was inactive: -8%; in test [3] (setting [8]), active: 98%; in test [3] (at 50.0 µM) it was active: 92.4%; in test [4] (setting [7]) it was inactive: 16%; in test [4] (setting [8]) it was inactive: 46%; in test [4] (at 50.0 µM), active: 86.8%. For the same compound, the growth inhibition is inactive: -3% in test [5] (setting [7]); active: 98% in test [5] (setting [8]); active: 89.8% in test [5] (at 50.0 µM); inactive: -33% in test [6] (setting [7]); active: 97% in test [6] (setting [8]); active: 88.1% in test [6] (at 50.0 µM).

Consider `O=[N+]([O-])c1cc([N+](=O)[O-])c(Nc2ccc(Cl)cc2)c([N+](=O)[O-])c1`, for which the growth inhibition is active: 78% in test [1] (setting [7]); active: 89% in test [1] (setting [8]); active: 81.3% in test [1] (at 50.0 µM); active: 80% in test [2] (setting [7]); active: 90% in test [2] (setting [8]); active: 86.3% in test [2] (at 50.0 µM). Further, the growth inhibition is inactive: 58% in test [3] (setting [7]); active: 97% in test [3] (setting [8]); inactive: 59% in test [4] (setting [7]); active: 96% in test [4] (setting [8]); active: 85% in test [5] (setting [7]); active: 98% in test [5] (setting [8]). Besides, the growth inhibition in test [6] (setting [7]) is inactive: 34%; in test [6] (setting [8]), active: 94%; in test [6] (at 50.0 µM) it was active: 83%.

Turning to `CCC1CCCCCCC1[S+](C)CC.O=[N+]([O-])c1cc([N+](=O)[O-])c(S(=O)(=O)[O-])c([N+](=O)[O-])c1`, the growth inhibition in test [1] (setting [7]) is inactive: 3%; in test [1] (setting [8]) it was inactive: 22%; in test [1] (at 50.0 µM), inactive: 52.2%; in test [2] (setting [7]) it was inactive: 10%; in test [2] (setting [8]) it was inactive: 42%; in test [2] (at 50.0 µM), inactive: 27.6%. Also, the growth inhibition is inactive: -8% in test [3] (setting [7]); inactive: 55% in test [3] (setting [8]); inactive: 61.8% in test [3] (at 50.0 µM); inactive: -6% in test [4] (setting [7]); inactive: 21% in test [4] (setting [8]); inactive: 56% in test [4] (at 50.0 µM). Besides, the growth inhibition was inactive: 0% in test [5] (setting [7]); inactive: 35% in test [5] (setting [8]); inactive: 46.9% in test [5] (at 50.0 µM); inactive: 23% in test [6] (setting [7]); inactive: 52% in test [6] (setting [8]); inactive: 26.6% in test [6] (at 50.0 µM).

The record behind these values is PubChem BioAssay (NCI).
